# Results published in US6913900B2, “Plasma prekallikrein activation and kallikrein production assay” (Nippon Zoki Pharmaceutical Co., Ltd., priority 2001, dated 2005).
# System: prekallikrein activating factor (PK activation)
# Experiment: Inhibition profile of PK activation (prekallikrein activation assay, kallikrein substrate S-2302, O.D. 405 nm)
# Assay type: biochemical, human
# Conditions: inhibitor concentration 2 mM
# Source text: In embodiments of the invention the reaction time may be fixed or “set.” The reaction time can be “set” by stopping the production of kallikrein, for example, by adding a prekallikrein activation inhibitor to the system of the present invention after a desired reaction time. Also, by adding a coloring or fluorescent synthetic substrate to the reaction system from the start or beginning, the produced amount of kallikrein (coloring or fluorescent intensity) may be observed at different lapses of time. […] When the reaction is stopped, the produced kallikrein can be quantitatively determined using an enzymatic activity of kallikrein as a target, for example, by applying a substrate to kallikrein.
# When the reaction is stopped, the produced plasma kallikrein can be determined using an enzymatic activity of the plasma kallikrein as a target by utilizing a substrate to the plasma kallikrein.
# Assays were performed in HEPES buffered saline (HBS) (10 mM Hepes, 137 mM NaCl, 4 mM KCl, 11 mM D-glucose, and 0.5 mg/ml RIA grade bovine serum albumin, pH 7.4), with a kallikrein specific substrate (0.6 mM S-2302). […] The absorbance (O.D. at 405 nm or optical density at 405 nm) was monitored at room temperature on a Molecular Devices (Sunnyvale, Calif.) THERMOmax microplate reader. […]
smiles,measurement,value
O=S(=O)(F)Cc1ccccc1 [PMSF],% inhibition of PK activation,5%
